Results on one compound are retold here after PMC3791465 (Nature Communications, 2013).

SMILES strings stand for the structures.

The test system of the assay is KPL-3C xenograft in BALB/c nude mice. The assay can be described thus: KPL-3C orthotopic xenograft tumour growth. It counts as in vivo, mouse. Particulars: daily 6 μg per day E2, KPL-3C.

`C[C@]12CC[C@@H]3c4ccc(O)cc4CC[C@H]3[C@@H]1CC[C@@H]2O` [E2, 17-estradiol]: the “E2-induced tumour growth by E2 alone” value was “induced time-dependent growth of KPL-3C and MCF-7 tumours”.
